Test results from ChEMBL document CHEMBL1132024, “N-phosphonoalkyl-5-aminomethylquinoxaline-2,3-diones: in vivo active AMPA and NMDA(glycine) antagonists” (Bioorg Med Chem Lett, 1999).

Target: Glutamate NMDA receptor
Assay: In vitro inhibition of binding of [3H]MDL-105519 towards glycine binding site of NMDA receptor in rat

SMILES: C[C@H](NCc1cc(Br)cc2nc(O)c(O)nc12)P(=O)(O)O
- IC50: 370 nM

SMILES: C[C@@H](NCc1cc(Br)cc2[nH]c(=O)c(=O)[nH]c12)P(=O)(O)O
- IC50: 6 nM
